## AlphaSeq binding of Ab-14 light chain variants to a spike HR2 peptide

Values reported by Li et al. 2023, doi:10.1038/s41467-023-39022-2 (FLAb copy).

Target: peptide PDVDLGDISGINAS, taken from heptad repeat 2 (HR2) of SARS-CoV-2 spike.

The variants keep the heavy chain, the linker and the frameworks of Ab-14 (scFv order VH, a 15-residue (Gly4Ser)3 linker, VL).
VH: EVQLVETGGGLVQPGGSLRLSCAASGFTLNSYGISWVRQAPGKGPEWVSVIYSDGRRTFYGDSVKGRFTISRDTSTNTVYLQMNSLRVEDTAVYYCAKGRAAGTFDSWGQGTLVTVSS
VL: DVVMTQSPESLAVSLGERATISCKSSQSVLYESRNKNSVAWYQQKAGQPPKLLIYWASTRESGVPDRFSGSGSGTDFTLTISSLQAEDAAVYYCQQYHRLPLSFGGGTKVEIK

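The starting antibody came from a phage panning campaign against this peptide. The variants were designed computationally from a first round of random CDR variants and then made and measured. Group labels follow the data file (Ctrl: baseline library sampled from a position-specific scoring matrix, with some repeated check sequences; Rand: our label for a block that the file lists under HC and that is probably the random mutants of the ten best first-round binders; En: ensemble of fine-tuned language models; GP: Gaussian process model; HC: hill climbing; Gen: genetic algorithm; Gibbs: Gibbs sampling; a sequence that several methods proposed may carry one label only). AlphaSeq pools MATa yeast showing the antibodies with MATalpha yeast showing the peptide. The frequency of each diploid, read from paired DNA barcodes, reflects how well the two displayed proteins bind. A regression on co-assayed BCL2-family reference pairs converts the normalised counts of each replicate to an apparent Kd. There are six technical replicates.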

Each variant is given by its three light chain CDRs, as the data file delimits them; those of the parent are KSSQSVLYESRNKNSVA, WASTRES, QQYHRLPLS.
Scale: log10 of Kd in nM, estimated from mating counts; low values are strong binders.
Replicates are averaged; those with no signal do not enter the mean.
"ND" marks a missing value. The strain was present, yet no cells mated with the target were sequenced in that replicate, which points to weak or no binding.

| # | log10 Kd (nM) by replicate | mean, log10 nM | CDR-L1 | CDR-L2 | CDR-L3 | group |
|---|---|---|---|---|---|---|
| 1 | 0.56 0.15 0.09 0.13 0.68 0.20 | 0.30 | TLSHSTDLESVHKNSIA | DLMTRES | QQYHRLPLS | En_HC |
| 2 | 0.04 0.07 -0.10 -0.32 -0.10 -0.10 | -0.09 | KMPQSVLYESRNKNSVA | NASTRMS | QQYHRLPLS | GP_Gen |
| 3 | 0.38 0.13 0.02 -0.05 0.07 0.32 | 0.14 | HSSPSYLYESRNKNSVA | NASTRES | QQYHRLPLQ | GP_HC |
| 4 | 0.39 0.51 0.48 1.20 1.20 0.14 | 0.65 | KYSFSELYESRNQNSVA | EASCREE | QQYHRLPLS | GP_Gibbs |
| 5 | ND ND ND ND 3.30 ND | 3.30 | KSSQSVLYESSNKNSVA | WASTRED | QQYHRLPLS | Ctrl |
| 6 | 0.32 -0.12 0.04 -0.24 0.15 -0.08 | 0.01 | KMSQSVPYEDRNWNSVA | NASKRLS | QQYHRLPLS | GP_Gibbs |
| 7 | 0.90 0.93 0.84 0.87 0.80 1.05 | 0.90 | KSSGSQQYEDRNSNSVA | HASQRES | QQYHRLPLS | GP_Gibbs |
| 8 | 0.99 1.29 1.29 1.22 1.33 2.13 | 1.38 | KLQLNVVDGWAMHNNIA | GDAWRAR | QQYYHLPLM | En_Gibbs |
| 9 | 0.26 0.23 0.12 0.18 -0.06 0.10 | 0.14 | KVSFSELYESRNKNSVA | EASTRES | QQYHRLPLS | GP_Gen |
| 10 | 0.20 0.40 0.00 0.22 0.19 0.24 | 0.21 | KSAYSELYESGNKNSVA | SASTRSS | QQYHRLPLS | GP_Gibbs |
| 11 | -0.11 -0.23 -0.20 -0.58 -0.48 -0.17 | -0.30 | KVSQSVLYESRMKNSVA | DASTRCS | QQYHRLPLW | GP_HC |
| 12 | ND ND ND ND ND ND | ND | KSSQSVLYHSRNKNSVA | WASTRES | QQYHRLPLS | Ctrl |
| 13 | 1.21 3.59 1.83 2.80 1.48 1.43 | 2.05 | HISEMIFAQSKMRNSVA | ENSTRES | QQYDRLPLS | En_HC |
| 14 | -0.14 -0.24 -0.28 -0.34 -0.37 -0.26 | -0.27 | KFSQSWLYESRNSNSVA | NASTRES | QQYHRLPLS | GP_Gen |
| 15 | 1.27 1.01 1.12 1.25 0.76 1.81 | 1.20 | TIGQVMNWESRNQNSVA | QTSTREE | QDYDRLPLS | En_HC |
| 16 | 0.70 0.41 0.83 0.71 0.72 0.99 | 0.73 | KLSQSELYESGNKNSVA | NASTRMS | QQYHRLPLS | GP_Gen |
| 17 | 0.81 0.81 1.01 0.52 1.27 0.63 | 0.84 | KSLWSVLQESNNKNSVA | HASTRED | QQYHRLPLS | GP_HC |
| 18 | 0.84 0.57 0.32 0.76 0.24 0.27 | 0.50 | KQSQSVMGEERNKNSVA | AASTREV | QQYHRLPLS | GP_Gibbs |
| 19 | 1.22 1.27 1.09 1.08 1.81 0.82 | 1.22 | KQSQSVLYESRNKNSVA | MASQRES | QQYHRLPLS | GP_HC |
| 20 | -0.23 -0.12 -0.08 -0.18 -0.09 -0.09 | -0.13 | KLPQSVLYESRNKNSVA | EASTREQ | QQYHRLPLS | GP_Gen |
| 21 | 0.41 0.76 0.72 1.22 1.40 1.07 | 0.93 | KSSQSVLYENENKSSVA | WASTRES | QQYHRLPLS | Ctrl |
| 22 | 1.13 1.39 1.43 1.48 1.56 1.85 | 1.47 | KSSQSVLYESRNKNSVA | NASTRES | QQYHELPLS | Ctrl |
| 23 | -0.22 -0.05 -0.35 -0.39 -0.20 -0.10 | -0.22 | KSSESWLYESRNKNSVA | HASTREQ | QQYHRLPLS | GP_HC |
| 24 | 0.79 0.40 0.26 0.42 0.42 0.62 | 0.49 | KSEISVLQESRNQNSVA | EASTREV | QQYHRLPLS | GP_Gibbs |
| 25 | 0.11 -0.27 -0.05 -0.37 -0.05 0.10 | -0.09 | KLQQSMGYESRNKNSVA | NASQRES | QQYHRLPLS | GP_Gen |
| 26 | 1.59 1.43 0.99 1.11 0.82 0.93 | 1.14 | KVSEFMKGLMMRKDSIA | DNNTRGS | QQYDRLPLS | En_Gen |
| 27 | 2.01 1.91 2.07 1.58 2.31 1.85 | 1.95 | MISQLMNMGQFAINSVA | QADIRNS | QQYDRLPLA | En_Gen |
| 28 | 0.59 0.78 0.47 0.33 0.47 0.94 | 0.60 | KLSQSWLYESRNKNSVA | NASTRMQ | QQYHRLPLS | GP_Gen |
| 29 | ND ND ND ND ND ND | ND | KSSQSVWYESDNKNSVA | WASTRES | QQYHRDPLS | Ctrl |
| 30 | ND ND 1.82 2.43 ND 1.24 | 1.83 | KISQSQLYESRNKNSVA | GASTRES | QQYHRLTLS | GP_HC |
| 31 | 1.45 1.76 1.42 1.68 1.75 2.03 | 1.68 | HITYGMMVLGRHSKSIA | QAETRAK | QQYDRLPLI | En_Gen |
| 32 | 0.41 0.48 0.33 0.24 0.39 0.70 | 0.43 | KFSQSVLYESTTYNSVA | NASTRES | QQYHRLPLS | Rand |
| 33 | 0.33 0.04 -0.06 -0.18 -0.20 -0.15 | -0.04 | KLLQSVLYESRNKNSVA | NASTRED | QQYHRLPLS | GP_HC |
| 34 | 0.26 -0.14 -0.43 -0.25 -0.47 -0.19 | -0.20 | KLLQSVLYESRNKNSVA | HASTREQ | QQYHFLPLS | GP_HC |
| 35 | 0.00 -0.07 -0.16 -0.30 -0.06 0.00 | -0.10 | KLSQSNLYESRMKNSVA | NASTRMS | QQYHRLPLS | GP_Gen |
| 36 | 0.44 0.26 -0.06 0.16 0.07 0.29 | 0.19 | KLSQSFLYEMRNKNSVA | NASTRES | QQYHRLPLS | GP_Gen |
| 37 | 1.26 0.80 1.06 0.86 1.06 1.45 | 1.08 | KCSQNVLIMGRGPNNVA | EMTTREE | QQYDRLPLS | En_HC |
| 38 | ND 2.31 ND ND ND ND | 2.31 | IVSQLMVWGWHAKNSIA | EAQTRLN | QQYDRLPLY | En_Gen |
| 39 | 0.06 0.02 -0.13 -0.11 0.07 0.07 | 0.00 | KSSFSVLYESRNKNSVA | DASTRES | QQYHRLPLS | Ctrl |
| 40 | 1.17 0.81 0.85 0.70 1.11 0.80 | 0.91 | KFEWSWLYESRNKNSVA | NASTRES | QQYWRLPLS | GP_Gibbs |
| 41 | 1.56 1.42 1.84 1.54 1.81 1.75 | 1.65 | IITQSVMQESRNKSNVA | NTSEREG | QQYDRLPLI | En_HC |
| 42 | 0.86 1.07 0.80 0.98 0.68 0.94 | 0.89 | KLRMSTGYESRNKDNIA | DNSTRGR | QQYHRLPLS | En_HC |
| 43 | 1.54 1.59 1.93 1.33 1.89 1.75 | 1.67 | KLSESVRMESFNKNSVA | ENSTRES | QDYHRLPLS | En_HC |
| 44 | ND ND ND ND 1.61 ND | 1.61 | MVSQLMLWGLHAKNSIA | EAVTRYN | QQYDRLPLM | En_Gen |
| 45 | -0.08 0.21 0.33 0.13 0.11 0.24 | 0.16 | HIDQVKYDQKTAENNIA | SGAERVW | QQYSRLPFS | En_Gibbs |
| 46 | ND 0.72 ND ND 2.09 ND | 1.41 | KVSMLINMTFEESNNVA | EMVTREK | QQYNRLPLS | En_Gen |
| 47 | 1.49 1.46 1.18 1.92 1.26 1.75 | 1.51 | KFIQSVMYEKRTKNHVA | NASTRES | QQYHRLPLS | Rand |

The last 7 entries again:

| CDR-L1 | CDR-L2 | CDR-L3 | group | log10 Kd (nM) by replicate | mean, log10 nM |
|---|---|---|---|---|---|
| IITQSVMQESRNKSNVA | NTSEREG | QQYDRLPLI | En_HC | 1.56 1.42 1.84 1.54 1.81 1.75 | 1.65 |
| KLRMSTGYESRNKDNIA | DNSTRGR | QQYHRLPLS | En_HC | 0.86 1.07 0.80 0.98 0.68 0.94 | 0.89 |
| KLSESVRMESFNKNSVA | ENSTRES | QDYHRLPLS | En_HC | 1.54 1.59 1.93 1.33 1.89 1.75 | 1.67 |
| MVSQLMLWGLHAKNSIA | EAVTRYN | QQYDRLPLM | En_Gen | ND ND ND ND 1.61 ND | 1.61 |
| HIDQVKYDQKTAENNIA | SGAERVW | QQYSRLPFS | En_Gibbs | -0.08 0.21 0.33 0.13 0.11 0.24 | 0.16 |
| KVSMLINMTFEESNNVA | EMVTREK | QQYNRLPLS | En_Gen | ND 0.72 ND ND 2.09 ND | 1.41 |
| KFIQSVMYEKRTKNHVA | NASTRES | QQYHRLPLS | Rand | 1.49 1.46 1.18 1.92 1.26 1.75 | 1.51 |

The range of this assay differs from that of the first round, and the authors advise against merging the two.
In the paper, a design with two or fewer of six values counts as a poor binder.
Of ten entries with the parent sequence, four were seen in most replicates (averages 0.34 to 2.37), three in one and three in none, so single entries are noisy.
Empty control strains, which show no peptide, gave a signal in 4% of pairings with all light chain designs; the median was 2.64 and 95% of these signals were weaker than 1.59. No background was subtracted.